pIC50: −log10 of the molar value.

Chains of the proteins cited; added tags and fusions are not shown.
UniProt O43175, whole entry: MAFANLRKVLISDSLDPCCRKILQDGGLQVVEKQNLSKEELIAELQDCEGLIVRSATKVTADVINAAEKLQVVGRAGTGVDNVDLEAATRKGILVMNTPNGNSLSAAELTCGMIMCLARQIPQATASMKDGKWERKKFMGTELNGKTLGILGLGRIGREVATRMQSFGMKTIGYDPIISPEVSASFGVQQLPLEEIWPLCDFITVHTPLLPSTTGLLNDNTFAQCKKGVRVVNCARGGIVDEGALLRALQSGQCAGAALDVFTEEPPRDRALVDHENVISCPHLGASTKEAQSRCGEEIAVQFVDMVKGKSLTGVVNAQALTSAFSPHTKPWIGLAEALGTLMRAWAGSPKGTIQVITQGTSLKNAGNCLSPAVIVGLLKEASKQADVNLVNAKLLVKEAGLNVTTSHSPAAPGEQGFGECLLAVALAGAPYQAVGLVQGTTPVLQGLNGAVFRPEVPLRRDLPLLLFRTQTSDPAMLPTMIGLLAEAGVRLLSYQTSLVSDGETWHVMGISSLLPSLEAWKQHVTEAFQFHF

The assay deals with Full length (FL) 3-Phosphoglycerate Dehydrogenase (PHGDH) (Homo sapiens, UniProt O43175). Kind of assay: Full length (FL) PHGDH Diaphorase coupled assay (500 uM NAD). Conditions: read-out: FL Diaphorase 500 μM NAD, full-length PHGDH 5 nM, 30° C. 60 minutes, resorufin fluorescence.

On to `COc1ccc2c(cc(C(=O)NC3(c4ccc(C(C(=O)O)C(C)C)cc4)COC3)n2C)c1Cl` (single isomer, unassigned), for which the pIC50 is 6.00 to 9.00.

With `COc1ccc2c(cc(C(=O)NC3(c4ccc(C(C(=O)O)C5CCCC5)cc4)COC3)n2C)c1Cl` (single isomer, unassigned), the pIC50 is 6.00 to 9.00.
